{
  "source": "paper PMC3506176",
  "about": "(Nature chemical biology, 2010)",
  "key": {"oxytocin receptor [1]": {"target": "T1, oxytocin receptor (Rattus norvegicus, UniProt P70536)", "T1 sequence (P70536 1-388)": "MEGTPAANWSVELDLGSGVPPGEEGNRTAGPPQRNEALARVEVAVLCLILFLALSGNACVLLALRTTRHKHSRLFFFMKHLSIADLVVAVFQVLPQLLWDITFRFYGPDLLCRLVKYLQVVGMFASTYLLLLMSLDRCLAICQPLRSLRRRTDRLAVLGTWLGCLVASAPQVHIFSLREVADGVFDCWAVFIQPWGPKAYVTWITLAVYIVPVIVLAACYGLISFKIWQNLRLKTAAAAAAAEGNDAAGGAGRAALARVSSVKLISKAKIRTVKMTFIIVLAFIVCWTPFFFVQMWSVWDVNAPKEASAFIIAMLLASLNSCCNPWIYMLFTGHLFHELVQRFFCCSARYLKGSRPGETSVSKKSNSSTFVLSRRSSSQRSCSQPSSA", "assay_type": "binding", "settings": "mammary gland patches; excess of oxytocin 1 μM"}, "oxytocin receptor [2]": {"target": "T1, oxytocin receptor", "test": "Saturation binding with [3H]OT on mammary gland membrane preparation", "settings": "mammary glands of lactating rats"}, "oxytocin receptor [3]": {"target": "T1, oxytocin receptor", "test": "Dissociation kinetics of [3H]OT on native tissue membrane preparation", "assay_type": "binding"}, "[4]": {"settings": "absence of an excess of oxytocin"}},
  "data": [
    {"substance": "oxytocin", "values": [
      {"measurement": "Effect on the FRET signal between donor and acceptor antagonists", "setting": "oxytocin receptor [1]", "value": "decreased"}
    ]},
    {"substance": "tritiated oxytocin [[^3H]OT]", "values": [
      {"measurement": "Hill coefficient of saturation experiments", "setting": "oxytocin receptor [2]", "value": "0.53 ± 0.01"},
      {"measurement": "Dissociation, two-phase exponential decay, first phase", "setting": "oxytocin receptor [3]; [4]", "value": "2.7 ± 0.3", "unit": "min"},
      {"measurement": "Dissociation, two-phase exponential decay, second phase", "setting": "oxytocin receptor [3]; [4]", "value": "71 ± 16", "unit": "min"},
      {"measurement": "Dissociation, one-phase exponential decay", "setting": "oxytocin receptor [3]; presence of an excess of unlabeled oxytocin (1 μM)", "value": "5.48 ± 0.59", "unit": "min"}
    ]}
  ]
}
